Source: patent US20240150321A1, “PYRAZOLYLSULFONAMIDE COMPOUNDS AND THEIR USE IN THERAPY” (HOTSPOT THERAPEUTICS, INC., priority 2022, published 2024)

Sequences of proteins named here, by UniProt entry; tags and fusion partners are left off.
UniProt Q9UDY8, whole entry: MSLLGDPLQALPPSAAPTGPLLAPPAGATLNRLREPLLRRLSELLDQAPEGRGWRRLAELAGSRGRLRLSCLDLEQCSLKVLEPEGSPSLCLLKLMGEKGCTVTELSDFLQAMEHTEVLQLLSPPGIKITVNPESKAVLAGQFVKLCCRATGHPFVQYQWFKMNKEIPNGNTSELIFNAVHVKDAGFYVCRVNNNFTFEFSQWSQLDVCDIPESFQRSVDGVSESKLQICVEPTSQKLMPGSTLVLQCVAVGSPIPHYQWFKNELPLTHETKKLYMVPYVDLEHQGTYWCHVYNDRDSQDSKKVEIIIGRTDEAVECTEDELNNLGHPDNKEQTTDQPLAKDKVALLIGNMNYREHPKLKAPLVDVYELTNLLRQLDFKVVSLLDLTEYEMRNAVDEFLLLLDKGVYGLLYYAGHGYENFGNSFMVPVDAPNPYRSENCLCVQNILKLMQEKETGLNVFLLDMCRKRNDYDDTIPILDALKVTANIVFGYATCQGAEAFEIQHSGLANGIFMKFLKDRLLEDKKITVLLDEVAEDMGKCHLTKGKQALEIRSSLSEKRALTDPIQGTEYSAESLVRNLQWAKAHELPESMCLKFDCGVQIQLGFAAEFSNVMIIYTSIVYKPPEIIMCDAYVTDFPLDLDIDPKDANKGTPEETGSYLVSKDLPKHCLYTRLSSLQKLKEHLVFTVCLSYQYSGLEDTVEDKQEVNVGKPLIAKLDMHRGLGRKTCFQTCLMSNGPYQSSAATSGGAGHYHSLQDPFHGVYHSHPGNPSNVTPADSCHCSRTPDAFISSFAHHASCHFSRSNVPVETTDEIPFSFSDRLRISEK

Columns and labels:
[1] = test system: NF-kB reporter in Jurkat cells; assay: NF-kB reporter assay in Jurkat cells stimulated with aCD3/aCD28/PMA; type: cell-based; conditions: read-out: NF-kB Reporter Assay IC50, 1 hr compound pre-incubation, aCD3/aCD28/PMA stimulation 4 hr, One-Glo readout
Experimental: Jurkat cells were maintained in complete RPMI 1640 media supplemented with 10% FBS. Prior to the assay, 120 nL of the serial diluted compound was added in each well of 384-well flat bottom white plate (Corning #3570) by using liquid handler Echo550. Jurkat cells were harvested by centrifugation at 120 g for 10 min and resuspended in fresh RPMI 1640 media without serum. […] (25,000 cells) were seeded in each well of 384-well plate containing compound. After 1 hr incubation at 37° C. in a 5% CO2 incubator, […] of diluted aCD3/aCD28/PMA (final concentration at […] and […], respectively) in RPMI 1640 without serum were added to each well. After incubation at 37° C. in 5% CO2 for 4 hr, […] of One-Glo reagent (Promega #E6120) was added into each well. The plate was left at room temperature for 5 min and the signal was measured on EnVision (PerkinElmer).
Compounds in which an IC50 was not measured are designated as “N/A”.

[2] = molecular target: Avi-tagged FL MALT-1 (Homo sapiens (Human), UniProt Q9UDY8); assay: MALT-1 Fluorogenic Peptide Cleavage Assay (MALT1 inhibition assay); conditions: read-out: MALT1 Inhibition IC50; Ac-LRSR-AMC peptide substrate, 30 min pre-incubation, 90 min reaction at room temperature
Experimental: Inhibition of MALT1 activity by the presence of small molecules was evaluated using MALT-1 Fluorogenic Peptide Cleavage Assay. The assay utilizes a quenched AMC-labelled peptide that contains the MALT-1 recognition sequence and cleavage site (LRSR). MALT-1 mediated cleavage of the peptide relieves the quenching and leads to an increase in fluorescence at excitation (342 nm) and emission (441 nm). […]
Compounds were plated to provide a 2% DMSO final concentration using a ProxiPlate-384 Plus F Black 384-shallow well microplate. The assay-ready plates were equilibrated to room temperature. […]
Fluorescence intensity was determined using a CLARIOstar microplate reader (BMG LABTECH) using the optimised AMC mode. Before taking readings, a 70% gain was applied on the neutral control well. […]

IC50 [1]: < 400 nM
IC50 [2]: > 2500 nM
Compound: COc1ccc2cnn(C)c2c1NS(=O)(=O)c1cnn(-c2cc(C(C)OC)ccn2)c1 (single isomer, unassigned) [Compound I-291, N-(6-methoxy-1-methyl-1H-indazol-7-yl)-1-(4-(1-methoxyethyl)pyridin-2-yl)-1H-pyrazole-4-sulfonamide]
